Where two headings read alike, the source gives them in different places.
Columns and labels:
[1] = target: T1, mouse TRPV3 (Mus musculus, UniProt Q8K424); assay: Whole-cell recordings of TRPV3 currents in HEK293 cells; type: cell-based; conditions: for Peak current amplitude at pH 5.5 relative to pH 7.4: after sensitization with 100 μM 2-APB
T1 construct: Full-length cDNA for murine TRPV3 was isolated and subcloned into pIRES2-EGFP; expressed in transfected cells; host or cells: HEK293 (transient)
T1 sequence (Q8K424 1-791): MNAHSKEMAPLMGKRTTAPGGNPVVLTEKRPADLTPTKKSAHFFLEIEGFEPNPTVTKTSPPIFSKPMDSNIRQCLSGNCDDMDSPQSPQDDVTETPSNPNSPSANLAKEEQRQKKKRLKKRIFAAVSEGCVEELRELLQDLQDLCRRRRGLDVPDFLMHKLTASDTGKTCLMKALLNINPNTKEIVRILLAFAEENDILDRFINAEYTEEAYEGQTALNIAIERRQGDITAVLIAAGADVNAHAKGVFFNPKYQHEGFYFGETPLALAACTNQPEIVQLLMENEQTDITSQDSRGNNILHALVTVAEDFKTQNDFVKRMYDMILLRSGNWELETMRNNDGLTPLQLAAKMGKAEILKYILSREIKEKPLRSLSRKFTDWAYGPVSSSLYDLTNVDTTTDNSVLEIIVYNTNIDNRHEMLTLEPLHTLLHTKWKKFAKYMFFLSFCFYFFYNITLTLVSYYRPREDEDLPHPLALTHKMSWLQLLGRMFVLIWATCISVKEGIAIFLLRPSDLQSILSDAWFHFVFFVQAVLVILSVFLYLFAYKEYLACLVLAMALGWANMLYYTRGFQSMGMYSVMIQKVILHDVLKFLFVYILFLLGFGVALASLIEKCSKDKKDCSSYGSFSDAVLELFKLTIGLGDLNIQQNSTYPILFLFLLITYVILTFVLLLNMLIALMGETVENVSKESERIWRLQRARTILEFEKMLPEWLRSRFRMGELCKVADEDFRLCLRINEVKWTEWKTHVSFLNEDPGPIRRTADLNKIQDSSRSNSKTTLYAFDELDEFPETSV
Description: The resulting mutations were verified by DNA sequencing.
Whole-cell recordings were performed the following day. […] All pharmacological experiments met this criterion. […] Camphor was purchased from Acros (New Jersey, USA).

[2] = target: TRPM8 (Rattus norvegicus, UniProt Q8R455); conditions: pH 5.5 versus pH 7.4
From the text: (§1) Full-length cDNA for murine TRPV3 was isolated and subcloned into pIRES2-EGFP, as previously described. The wild-type rat TRPV1, TRPV2 and TRPM8 cDNAs were generously provided by Dr. Feng Qin (State University of New York at Buffalo, Buffalo). All mutations were made using either QuikChange® XL site-directed mutagenesis kit (Agilent Technologies) or the overlap-extension polymerase chain reaction (PCR) method as previously described. The resulting mutations were verified by DNA sequencing. HEK293 cells were grown in DMEM containing 4.5 mg/ml glucose, 10% heat-inactivated fetal bovine serum, 50 units/ml penicillin, and 50 μg/ml streptomycin. For electrophysiological experiments, cells were seeded in 35 mm culture dishes and transfected with the desired DNA constructs using Lipofectamine 2000 (Invitrogen) following the protocol provided by the manufacturer. Stable TRPV3 expressing cells were selected in the G418-containing medium. For intracellular Ca^2+ measurements, cells were transfected with the desired DNA constructs in the wells of 96-well plates without pre-seeding using Lipofectamine 2000 (Invitrogen) as described.
(§2) Transfected HEK293 cells were reseeded on 12 mm round glass coverslips (Warner Instruments) one day after transfection. Whole-cell recordings were performed the following day. Recording pipettes were pulled from borosilicate glass capillaries (Sutter or World Precision Instruments) to 2–4 MΩ when filled with internal solution containing (in mM) 140 CsCl, 2.0 MgCl2, 5 EGTA, 10 HEPES, pH 7.4. Bathing solution contained (in mM) 140 NaCl, 5 KCl, 5 EGTA, 1 MgCl2, 10 glucose and 10 HEPES, pH 7.4. Isolated cells were voltage clamped in the whole-cell mode using an EPC10 amplifier (HEKA Instruments Inc). Voltage commands were made from the Patchmaster program, and the currents were recorded at 5 kHz. […] Whole-cell recordings were typically sampled at 5 kHz and filtered at 1 kHz. The compensation of pipette series resistance and capacitance were taken by using the built-in circuitry of the amplifier (>80%) to reduce voltage errors. Exchange of external solutions was performed using a gravity-driven local perfusion system (Automate Scientific). Channel activators were diluted into the recording solution at the desired final concentrations and applied to the cell through perfusion. As determined by the conductance tests, the solution around a patch under study was fully controlled by the application of a solution with a flow rate of 100 μl/min or greater. […] The acidic solutions contained (in mM): 140 NaCl, 5 KCl, 5 EGTA, 1 MgCl2, 10 glucose, and 10 MES, with pH adjusted to desired values by NaOH. For inside-out recordings, both the pipette solution and bath solution contained (in mM) 140 NaCl, 5 KCl, 5 EGTA, 1 MgCl2, 10 HEPES, pH 7.4. Excised patches were held constantly at desired potentials while compounds were repetitively applied and washed from the bath. For recordings from HEK293 cells under acidic pH conditions, the solution also contained 50 μM amiloride as an inhibitor of the native ASIC channels. Camphor was purchased from Acros (New Jersey, USA). Diphenyl borate (DPB) was synthesized by Beijing Realchem Technology Company (Beijing, China). Other chemicals were purchased from Sigma (Sigma, St. Louis, MO). Water-insoluble reagents were dissolved in either 100% ethanol or DMSO to make stock solutions and were diluted in the bathing solution at appropriate concentrations before experiments. […] All experiments except those for heat activation were performed at room temperature (22–24 °C).

[3] = target: TRPV2 (Rattus norvegicus, UniProt Q9WUD2); conditions: 300 μM 2-APB; for Current relative to that at pH 7.4, cytoplasmic side: inside-out, +60 mV
From the text: as §1, §2

[4] = target: TRPV3 (Mus musculus, UniProt Q8K424); conditions: 5 μM 2-APB; inside-out; +60 mV; after sensitization with 100 μM 2-APB
From the text: as §1, §2

[5] = target: mTRPV3(E610Q) (Mus musculus, UniProt Q8K424, E610Q); conditions: E610Q mutant
From the text: as §1, §2

Reduction of EC50 by low pH ([1]; pH 5.5 versus pH 7.4): about 12 fold | Reduction of IC50 by low pH [2]: about 7 fold | Whole-cell current relative to that at pH 7.4 ([3]; pH 5.5): 13 fold | Current relative to that at pH 7.4, cytoplasmic side ([3]; pH 5.5): ~19 fold | Whole-cell current relative to that at pH 7.4 ([3]; pH 6.0): 8 fold | Current relative to that at pH 7.4, cytoplasmic side ([3]; pH 6.0): approximately 15 fold | Current amplitude at pH 5.5 relative to pH 7.4 ([5]; 5 μM 2-APB): ~7 fold | Current amplitude at pH 5.5 relative to pH 7.4 ([5]; 30 μM 2-APB): about 2 fold
Structure (SMILES): NCCOB(c1ccccc1)c1ccccc1 [2-APB, 2-aminoethoxydiphenyl borate]
Peak current amplitude at pH 5.5 relative to pH 7.4 ([1]; 5 μM 2-APB): ~10 fold | Peak current amplitude at pH 5.5 relative to pH 7.4 ([1]; 30 μM 2-APB): ~ 2 fold | Current at pH 5.5 relative to pH 7.4, cytoplasmic side [4]: about 8 fold
